# Literature values, collected in US20020064550A1, “Edible candy compositions and methods of using same” (AkPharma, Inc., priority 2000, published 2002).
# Conditions: water
substance,measurement,value
"1,2,3-propanetriol, mono(dihydrogen phosphate) calcium salt (1:1) [calcium glycerophosphate]",solubility,about 1 gram in about 50 mL of water
